Measured values: PubChem BioAssay (NCATS)
This is a selection; strong and weak results do not stand in their true shares. Results filed as inconclusive are left out. Activity calls are given as the source filed them. Unless noted, calls follow the shape of the dose curve; as a rule, active = well fitted curve in the direction sought with a large enough effect; inconclusive = small, poorly fitted or top-dose-only effect, or another doubt; inactive = no such curve, though single readings can be large; an effect the other way counts as inactive or inconclusive.

Chains of the proteins cited; added tags and fusions are not shown. Lines headed by an entry give the natural chain unless they say otherwise; changes in a name come on top.
UniProt O94782: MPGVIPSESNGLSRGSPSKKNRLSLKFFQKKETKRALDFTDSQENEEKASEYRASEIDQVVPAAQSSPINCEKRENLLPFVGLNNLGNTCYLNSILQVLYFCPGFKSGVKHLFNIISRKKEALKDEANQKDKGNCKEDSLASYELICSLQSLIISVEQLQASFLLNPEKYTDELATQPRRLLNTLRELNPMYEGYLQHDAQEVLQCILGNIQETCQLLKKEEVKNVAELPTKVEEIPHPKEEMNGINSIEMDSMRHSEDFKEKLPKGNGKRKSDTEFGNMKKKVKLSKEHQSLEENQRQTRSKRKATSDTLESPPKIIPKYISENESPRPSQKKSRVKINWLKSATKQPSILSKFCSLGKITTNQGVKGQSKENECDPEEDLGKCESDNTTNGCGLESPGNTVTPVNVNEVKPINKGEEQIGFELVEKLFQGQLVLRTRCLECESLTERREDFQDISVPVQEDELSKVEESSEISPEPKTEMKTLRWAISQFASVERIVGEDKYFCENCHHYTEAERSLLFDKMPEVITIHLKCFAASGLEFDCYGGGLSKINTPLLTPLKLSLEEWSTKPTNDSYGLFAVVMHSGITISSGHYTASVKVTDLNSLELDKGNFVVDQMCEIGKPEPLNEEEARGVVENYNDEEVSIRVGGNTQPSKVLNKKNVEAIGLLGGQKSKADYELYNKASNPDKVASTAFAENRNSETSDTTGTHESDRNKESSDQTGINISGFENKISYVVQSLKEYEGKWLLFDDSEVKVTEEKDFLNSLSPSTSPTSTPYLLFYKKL
UniProt P08659, whole entry, looked up: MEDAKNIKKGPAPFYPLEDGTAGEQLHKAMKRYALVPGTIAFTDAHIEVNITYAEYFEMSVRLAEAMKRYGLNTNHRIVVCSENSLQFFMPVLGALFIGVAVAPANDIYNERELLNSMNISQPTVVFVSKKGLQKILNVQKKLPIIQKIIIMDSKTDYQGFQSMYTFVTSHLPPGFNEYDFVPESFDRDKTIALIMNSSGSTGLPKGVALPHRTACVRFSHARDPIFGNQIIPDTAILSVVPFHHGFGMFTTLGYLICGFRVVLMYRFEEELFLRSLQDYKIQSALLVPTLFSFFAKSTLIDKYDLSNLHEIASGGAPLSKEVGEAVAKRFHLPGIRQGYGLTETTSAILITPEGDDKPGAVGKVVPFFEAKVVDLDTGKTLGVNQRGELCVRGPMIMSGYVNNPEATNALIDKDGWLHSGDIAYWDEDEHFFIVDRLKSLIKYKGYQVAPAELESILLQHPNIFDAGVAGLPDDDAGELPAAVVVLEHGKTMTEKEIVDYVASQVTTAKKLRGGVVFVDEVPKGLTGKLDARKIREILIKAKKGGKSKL
UniProt P43220, whole entry, looked up: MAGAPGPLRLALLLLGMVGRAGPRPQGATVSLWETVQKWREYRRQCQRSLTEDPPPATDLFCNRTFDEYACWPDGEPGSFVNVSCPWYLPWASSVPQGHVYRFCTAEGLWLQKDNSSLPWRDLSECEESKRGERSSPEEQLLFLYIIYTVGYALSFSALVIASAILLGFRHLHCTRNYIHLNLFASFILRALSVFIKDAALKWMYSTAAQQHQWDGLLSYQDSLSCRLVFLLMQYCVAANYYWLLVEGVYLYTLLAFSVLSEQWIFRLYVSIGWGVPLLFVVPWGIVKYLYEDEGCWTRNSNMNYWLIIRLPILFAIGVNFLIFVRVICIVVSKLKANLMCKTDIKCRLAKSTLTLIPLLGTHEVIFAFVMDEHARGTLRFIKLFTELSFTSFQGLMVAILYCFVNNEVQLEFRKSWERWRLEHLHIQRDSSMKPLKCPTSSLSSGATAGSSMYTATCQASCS
UniProt P35557, whole entry, looked up: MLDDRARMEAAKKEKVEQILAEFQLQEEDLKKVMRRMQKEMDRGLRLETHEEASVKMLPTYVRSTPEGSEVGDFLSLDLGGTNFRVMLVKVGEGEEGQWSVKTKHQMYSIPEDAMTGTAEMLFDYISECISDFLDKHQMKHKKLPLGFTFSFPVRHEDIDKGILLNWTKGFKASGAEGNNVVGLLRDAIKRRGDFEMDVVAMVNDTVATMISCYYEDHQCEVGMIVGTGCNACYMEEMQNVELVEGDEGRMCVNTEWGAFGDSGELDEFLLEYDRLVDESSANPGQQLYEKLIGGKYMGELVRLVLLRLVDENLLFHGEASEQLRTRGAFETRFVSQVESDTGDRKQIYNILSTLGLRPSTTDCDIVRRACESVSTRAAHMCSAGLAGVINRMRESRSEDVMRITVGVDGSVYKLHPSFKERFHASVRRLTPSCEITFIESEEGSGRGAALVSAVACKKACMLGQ
UniProt Q14397: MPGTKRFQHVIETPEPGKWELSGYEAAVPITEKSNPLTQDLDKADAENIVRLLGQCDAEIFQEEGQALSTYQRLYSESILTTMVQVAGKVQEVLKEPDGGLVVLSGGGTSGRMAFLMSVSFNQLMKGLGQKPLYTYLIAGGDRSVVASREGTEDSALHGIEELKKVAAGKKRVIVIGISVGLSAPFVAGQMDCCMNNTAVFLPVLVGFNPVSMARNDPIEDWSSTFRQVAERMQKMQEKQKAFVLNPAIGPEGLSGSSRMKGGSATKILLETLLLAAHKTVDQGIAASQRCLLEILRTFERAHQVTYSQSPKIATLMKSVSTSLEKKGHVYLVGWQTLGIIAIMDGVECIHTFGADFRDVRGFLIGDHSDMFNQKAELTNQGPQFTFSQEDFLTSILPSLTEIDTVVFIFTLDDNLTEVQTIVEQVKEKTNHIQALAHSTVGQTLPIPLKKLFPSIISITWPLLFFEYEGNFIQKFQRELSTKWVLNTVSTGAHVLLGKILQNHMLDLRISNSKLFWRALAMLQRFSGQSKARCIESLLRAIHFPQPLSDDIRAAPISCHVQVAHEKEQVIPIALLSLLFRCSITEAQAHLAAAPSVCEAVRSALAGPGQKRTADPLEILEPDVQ
UniProt P16066: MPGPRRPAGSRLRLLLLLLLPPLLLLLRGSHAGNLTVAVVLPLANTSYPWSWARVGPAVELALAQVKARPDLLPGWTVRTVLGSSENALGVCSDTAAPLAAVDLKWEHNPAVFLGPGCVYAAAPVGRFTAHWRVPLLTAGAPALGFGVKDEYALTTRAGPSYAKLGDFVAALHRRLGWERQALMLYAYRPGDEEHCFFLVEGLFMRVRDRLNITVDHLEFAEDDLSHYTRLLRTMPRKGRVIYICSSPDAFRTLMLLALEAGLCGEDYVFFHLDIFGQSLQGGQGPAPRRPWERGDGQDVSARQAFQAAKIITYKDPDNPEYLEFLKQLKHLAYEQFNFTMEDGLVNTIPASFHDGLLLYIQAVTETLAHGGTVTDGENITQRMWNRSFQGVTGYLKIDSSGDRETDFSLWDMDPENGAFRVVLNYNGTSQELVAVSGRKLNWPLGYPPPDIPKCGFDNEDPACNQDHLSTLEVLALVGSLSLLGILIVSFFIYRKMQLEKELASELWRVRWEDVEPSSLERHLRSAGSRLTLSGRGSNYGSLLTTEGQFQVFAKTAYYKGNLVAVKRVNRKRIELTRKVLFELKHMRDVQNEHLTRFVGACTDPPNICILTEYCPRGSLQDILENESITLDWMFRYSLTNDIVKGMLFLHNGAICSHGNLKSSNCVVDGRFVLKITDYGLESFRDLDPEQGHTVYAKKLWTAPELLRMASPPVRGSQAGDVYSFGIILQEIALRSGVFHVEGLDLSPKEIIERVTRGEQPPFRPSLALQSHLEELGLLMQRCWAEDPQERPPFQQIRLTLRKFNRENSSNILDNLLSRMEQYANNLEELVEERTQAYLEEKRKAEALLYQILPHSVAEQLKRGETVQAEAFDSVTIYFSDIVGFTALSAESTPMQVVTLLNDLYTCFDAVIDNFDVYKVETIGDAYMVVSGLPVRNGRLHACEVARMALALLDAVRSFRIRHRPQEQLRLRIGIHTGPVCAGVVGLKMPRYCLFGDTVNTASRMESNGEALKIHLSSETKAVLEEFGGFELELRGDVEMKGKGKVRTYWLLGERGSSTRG
UniProt P20594: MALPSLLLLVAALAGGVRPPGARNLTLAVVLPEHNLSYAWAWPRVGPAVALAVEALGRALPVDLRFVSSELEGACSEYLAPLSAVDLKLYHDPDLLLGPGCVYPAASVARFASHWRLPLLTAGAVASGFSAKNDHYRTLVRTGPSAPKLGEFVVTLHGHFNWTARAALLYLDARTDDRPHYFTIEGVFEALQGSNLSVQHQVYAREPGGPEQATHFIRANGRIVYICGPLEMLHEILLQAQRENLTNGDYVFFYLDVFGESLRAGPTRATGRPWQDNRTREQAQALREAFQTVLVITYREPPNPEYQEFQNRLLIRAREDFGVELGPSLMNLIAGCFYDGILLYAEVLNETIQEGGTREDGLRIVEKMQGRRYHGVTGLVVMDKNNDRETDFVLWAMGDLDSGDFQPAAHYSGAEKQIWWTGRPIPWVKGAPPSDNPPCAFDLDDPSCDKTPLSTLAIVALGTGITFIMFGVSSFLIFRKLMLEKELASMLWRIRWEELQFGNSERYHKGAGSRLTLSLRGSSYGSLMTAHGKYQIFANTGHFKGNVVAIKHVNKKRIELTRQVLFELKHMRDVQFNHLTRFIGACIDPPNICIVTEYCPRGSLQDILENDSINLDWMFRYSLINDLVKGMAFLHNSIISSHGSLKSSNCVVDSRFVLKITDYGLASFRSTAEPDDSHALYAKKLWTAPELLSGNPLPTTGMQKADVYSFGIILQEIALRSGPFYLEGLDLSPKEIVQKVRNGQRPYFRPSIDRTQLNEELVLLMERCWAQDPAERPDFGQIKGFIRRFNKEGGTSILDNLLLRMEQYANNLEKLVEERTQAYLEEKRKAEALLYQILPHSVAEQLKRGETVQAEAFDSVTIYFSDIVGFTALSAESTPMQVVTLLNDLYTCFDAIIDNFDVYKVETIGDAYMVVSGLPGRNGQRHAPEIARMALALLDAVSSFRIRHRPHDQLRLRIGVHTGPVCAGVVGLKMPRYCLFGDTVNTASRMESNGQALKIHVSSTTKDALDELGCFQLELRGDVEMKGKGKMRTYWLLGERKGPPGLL

What was measured:
[1] = target: Ubiquitin carboxyl-terminal hydrolase 1 (Homo sapiens) (UniProt O94782); test: Inhibitors of USP1/UAF1: Pilot qHTS (AID 504865); conditions: purified USP1/UAF1, Ub-rhodamine cleavage fluorescence; at 114 µM (top of the series);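 also: rhodamine fluorescence freed from ubiquitin-rhodamine substrate followed over time; top concentration of the series differs between compounds; % is scaled to controls: 0 for no effect and ±100 for the full control effect; nearly all actives have a fitted effect of over 35% in size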
[2] = target: Luciferin 4-monooxygenase (Photinus pyralis) (UniProt P08659); test: Biochemical firefly luciferase enzyme assay for NPC (AID 624030);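 also: purified P. pyralis luciferase at 10 nM with luciferin and ATP substrate; 0% = DMSO and -100% = full luciferase inhibition by PTC124 control; nearly all actives have a fitted effect of over 70% in size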; conditions: purified P. pyralis luciferase, luminescence, 5 min; at 58.6 µM (top of the series) unless noted
In short: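 Direct inhibition of firefly luciferase enzyme (10 nM final, 50 mM Tris Acetate) assessed by luminescence within 5 minutes. Percent activity scaled between DMSO and PTC124 positive control, with concentration-effect curves classified by fit quality and response.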

[3] = target: Glucagon-like peptide 1 receptor (Homo sapiens) (UniProt P43220); test: qHTS of GLP-1 Receptor Agonists: LOPAC Validation (AID 624148); conditions: GLP-1R agonist cell assay; at 46.1 µM (top of the series);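 also: luminescence from a luciferase reporter switched on by cAMP; 0% is about no effect; higher luminescence signal means agonism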
In short: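 Agonism scored as increased luciferase luminescence driven by cAMP in HEK293 clones carrying GLP-1R. Cells settled 12 hours, received compound for 4-6 hr at 37 deg C, 5% CO2, and were read after 12 min detection reagent at RT.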

[4] = qHTS of Nrf2 Activators: LOPAC Validation (AID 624149); conditions: Nrf2/ARE reporter cell assay; at 46.1 µM (top of the series); also: 0% is about no effect
In short: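 ARE reporter activation measured in AREc32 firefly luciferase cells after 24 hr compound exposure; Steady-Glo luminescence.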

[5] = HTS Assay for Allosteric Antagonists of the Human D2 Dopamine Receptor: Hit Validation in HTRF (AID 624455); conditions: D2 receptor cells, HTRF cAMP read-out, antagonist mode; at 46.1 µM (top of the series);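 also: stable D1 dopamine receptor cell line scored for blocking the D1 response; % is scaled to controls: 0 for no effect and ±100 for the full control effect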
In short: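 Signal from an HTRF read-out in D1-expressing stable cells gave hit activity as inhibition of the D1 response.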

[6] = qHTS for compounds that reverse cellular toxicity of Amyloid beta (A-beta) peptide in yeast: LOPAC Validation Assay (AID 720559); conditions: yeast expressing A-beta; at 46.1 µM (top of the series);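 also: plate controls were DMSO for no effect and equimolar ferric chloride plus clioquinol rescue for full effect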
In short: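 Rescue of A-beta toxicity was scored as yeast growth by 600 nm absorbance after 48 hr at 30 C with compound. Normalization used DMSO (negative) and equimolar ferric chloride plus clioquinol (positive).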

[7] = qHTS for Activators of Parkin Expression: LOPAC Validation Assay (NLuc Reporter) (AID 720572;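 also: 0% = DMSO and 100% = positive control compound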); conditions: Parkin promoter NanoLuc reporter cells, luminescence, percent of positive control, DMSO as zero; at 46.1 µM (top of the series)
In short: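 Parkin promoter-driven FLuc/NLuc neuronal reporter cells; 24 h plating, 7-pt dose response, 24 h at 37 C/5% CO2; FLuc then NanoLuc reagent, 10 min each, luminescence; DMSO/positive control normalized.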

[8] = qHTS for Activators of Parkin Expression: LOPAC Validation Assay (FLuc Reporter) (AID 720573;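 also: 0% = DMSO and 100% = positive control compounds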); conditions: Cell line, PRKN promoter firefly luciferase reporter, vehicle wells = 0, positive control = 100%; at 46.1 µM (top of the series)
In short: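 FLuc signal from Parkin-promoter coincidence reporter neuronal cells, normalized to DMSO and positive control (100%). Cells (1,500/well) pre-incubated 24 h, then exposed to LOPAC compounds in 7-point dose response for 24 h at 37 C, 5% CO2.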

[9] = target: T1, Hexokinase-4 (Homo sapiens) + Glucokinase regulatory protein (Homo sapiens) (UniProt P35557+Q14397); test: qHTS assay for inhibitors of recombinant human GCK-GKRP interaction: Diaphorase-coupled assay (AID 743205); conditions: G6PDH/diaphorase resorufin fluorescence; at 57.5 µM (top of the series)
In short: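 A kinetic fluorescence read (Ex 525/Em 590 nm, every minute for 30 minutes) tracked resorufin from a G6PDH-diaphorase coupled GCK reaction. It contained 10 nM GST-GCK, 10 nM FLAG-GKRP, 5 mM glucose, 0.4 mM ATP in Hepes pH 7.6. Normalized to with/without-enzyme DMSO controls.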

[10] = target: T1, Hexokinase-4 (Homo sapiens) + Glucokinase regulatory protein (Homo sapiens); test: qHTS assay for inhibitors of recombinant human GCK-GKRP interaction: ADP-Glo assay (AID 743206); conditions: ADP-Glo luminescence, 60 min, 0% = vehicle-only wells with enzyme present; at 76.9 µM (top of the series);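 also: plate controls were DMSO plus enzyme for no effect and no enzyme for full effect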
In short: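 GST-GCK and FLAG-GKRP (15 nM each in the dispensed mix, with 2 uM S6P) react with 0.4 mM ATP and 5 mM glucose (final) in Hepes pH 7.6 for 60 min at room temperature. ADP is measured by ADP-Glo luminescence.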

[11] = target: T1, Hexokinase-4 (Homo sapiens) + Glucokinase regulatory protein (Homo sapiens); test: qHTS assay for inhibitors of recombinant human GCK-GKRP interaction: HTRF assay (AID 743207); conditions: recombinant GCK-GKRP HTRF binding, 60 min, with sorbitol-6-phosphate; at 57.5 µM (top of the series);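 also: 0% = DMSO with GCK present and -100% = DMSO wells lacking GCK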
In short: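 After 60 min equilibration at room temperature with anti-FLAG XL665 and anti-GST antibodies, FRET ratio (665/615 nm, excitation 320 nm) was read. Proteins: GST-GCK and FLAG-GKRP, each 5 nM, plus 2 uM S6P, pH 7.1 buffer; GCK-free wells define minimum signal.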

[12] = qHTS Assay for Identifying Gametocytocidal Compounds (AID 743244);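 also: % is scaled to controls: 0 for no effect and ±100 for the full control effect; actives lower the fluorescent signal which means gametocytes are killed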; conditions: P. falciparum 3D7 stage III-V gametocytes, alamarBlue, 72 h; max response: active compounds read low
[13] = Natriuretic polypeptide receptor (hNpr1) antagonism - Pilot counterscreen GloSensor control cell line (AID 1347045; calls by dose curve; also: % is scaled to controls: 0 for no effect and ±100 for the full control effect); conditions: GloSensor cAMP control cell line, luminescence counterscreen; at 38.3 µM (top of the series)
In short: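 This counterscreen uses HEK293 cells expressing the GIP/pGS-40F cGMP biosensor. Compound-treated cells are challenged with 50 uM sodium nitroprusside, and the luciferase signal is compared before and after stimulation.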

[14] = target: Atrial natriuretic peptide receptor 1 (Homo sapiens) (UniProt P16066); test: Natriuretic polypeptide receptor (hNpr1) antagonism - Pilot screen (AID 1347049; calls by dose curve;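 also: agonist-evoked cGMP luminescence read 20 min after hNppA addition; % is scaled to controls: 0 for no effect and ±100 for the full control effect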); conditions: hNpr1 cells, antagonist mode cGMP read-out; at 57.5 µM (top of the series)
In short: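 Readout is cGMP-driven firefly luciferase luminescence in HEK293 cells carrying hNpr1 and a PDE5-domain GloSensor, read before and 20 min after 0.1 nM hNppA stimulation. Cells had 2% substrate reagent for 2 h and test compound for 30 min.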

[15] = target: Atrial natriuretic peptide receptor 2 (Homo sapiens) (UniProt P20594); test: Natriuretic polypeptide receptor (hNpr2) antagonism - Pilot subtype selectivity assay (AID 1347050; calls by dose curve; also: % is scaled to controls: 0 for no effect and ±100 for the full control effect); conditions: NPR2-expressing cells, cGMP antagonist-mode read-out; at 38.3 µM (top of the series)
In short: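 Pilot selectivity screen against hNpr2: HEK293 cGMP-sensor cells are treated with LOPAC1280 compounds, then with hNppC peptide at 1 nM final. The cGMP-driven luminescence change over 20 min at room temperature is the read-out.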

CN(C(=O)Cc1ccc(Cl)c(Cl)c1)[C@@H]1CC[C@]2(CCCO2)C[C@H]1N1CCCC1
inactive: activity change, negative = inhibition [1] -3.07% | activity change, negative = inhibition [2] -1.66% | activation [3] -1.03% | activation [4] 0.908% | activity, negative = inhibition [5] -0.613% | growth rescue, positive = activation [6] -4.13% | activation [7] -4.1% | activation [8] -2.23% | activity change, positive = activation [9] -3.75% | activity, positive = activation [10] 4.58% | activity change, negative = inhibition [11] -3.56% | max response [12] 13.6% | activity change, negative = inhibition [13] 1.75% | activity change, negative = inhibition [14] 4.92% | activity change, negative = inhibition [15] -12.5%
